# Test results from publication PMC3899824 (Investigational new drugs, 2013).
# Tested on: tubulin
# Experiment: Cell-free tubulin polymerization assay
# Assay type: biochemical
# Conditions: 5 μM, 60m at 340 nm
smiles,measurement,value
COc1cc2c(c(OC)c1OC)-c1ccc(OC)c(=O)cc1[C@@H](NC(C)=O)CC2 [colchicine],effect on tubulin polymerization,prevents microtubule polymerization
